Tests used:
Format in all cases: functional, cell-based
PC-3 = assay: Inhibition of colony formation in human PC3 cells after 2 weeks by crystal violet staining-based assay
Summary of the method: (§1)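 Seeding: 250 cells per well for HCT-116, 300 for U87MG, MDA-MB-231 and PC-3; incubated overnight, then exposed to a range of concentrations for 2 weeks. Fixed in 4% paraformaldehyde 30 min at room temperature, stained with 0.1% crystal violet. Colonies over 50 cells counted; colony formation rate calculated; IC50 by nonlinear regression.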

U-87MG ATCC = assay: Inhibition of colony formation in human U87MG cells after 2 weeks by crystal violet staining-based assay; summary of the method: as §1
MDA-MB-231 = assay: Inhibition of colony formation in human MDA-MB-231 cells after 2 weeks by crystal violet staining-based assay; summary of the method: as §1
HCT-116 = assay: Inhibition of colony formation in human HCT116 cells after 2 weeks by crystal violet staining-based assay; summary of the method: as §1

Measured: inhibition

CNC(=O)c1ccccc1Nc1nc(Nc2cc(OC)c(OC)c(OC)c2)nc2nccn12
active: PC-3 = Dose-dependent effect | U-87MG ATCC Dose-dependent effect | MDA-MB-231 = Dose-dependent effect | HCT-116 = Dose-dependent effect

From ChEMBL document CHEMBL3392964, “Design, synthesis, and evaluation of novel imidazo[1,2-a][1,3,5]triazines and their derivatives as focal adhesion kinase inhibitors with antitumor activity” (J Med Chem, 2015)
